Results taken from ChEMBL document CHEMBL5385848, “Discovery of novel hydroxyamidine based indoleamine 2,3-dioxygenase 1 (IDO1) and thioredoxin reductase 1 (TrxR1) dual inhibitors” (Eur J Med Chem, 2023).

Assays:
[1] = Selectivity ratio of IC50 for inhibition of IDO2 (unknown origin) to IC50 for inhibition of recombinant human IDO1
[2] = Selectivity ratio of IC50 for inhibition of TDO (unknown origin) to IC50 for inhibition of recombinant human IDO1

Ratio IC50 [1]: 370
Ratio IC50 [2]: 903
SMILES: O=C(Cc1ccc(O)cc1)Nc1nnc(CCCNc2nonc2/C(=N\O)Nc2ccc(F)c(Br)c2)s1
